Tests used:
VEGF [1] = target: T1, VEGF (UniProt P15692-4 27-191); assay: Biacore SPR
T1 construct: Bought reagent
T1 sequence (looked up): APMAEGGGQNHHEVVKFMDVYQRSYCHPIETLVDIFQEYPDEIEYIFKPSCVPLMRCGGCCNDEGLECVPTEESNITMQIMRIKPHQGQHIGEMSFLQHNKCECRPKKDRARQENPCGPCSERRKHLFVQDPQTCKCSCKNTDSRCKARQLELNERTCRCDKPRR

VEGF [2] = target: T2, VEGF (UniProt P15692-4 27-191); assay: SPR (Biacore); N-terminal VD
T2 sequence (looked up): T1 sequence (looked up)

B1: DVD042 (bispecific antibody, human IgG1, kappa)
heavy: QVQLVQSGAEVKKPGASVKVSCKASGYTFTSYDINWVRQATGQGLEWMGWMNPNSGNTGYAQKFQGRVTMTRNTSISTAYMELSSLRSEDTAVYYCARDPYYYYYGMDVWGQGTTVTVSSASTKGPEVQLVESGGGLVQPGGSLRLSCAASGYTFTNYGMNWVRQAPGKGLEWVGWINTYTGEPTYAADFKRRFTFSLDTSKSTAYLQMNSLRAEDTAVYYCAKYPHYYGSSHWYFDVWGQGTLVTVSSASTKGPSVFPLAPSSKSTSGGTAALGCLVKDYFPEPVTVSWNSGALTSGVHTFPAVLQSSGLYSLSSVVTVPSSSLGTQTYICNVNHKPSNTKVDKKV[omitted - human IgG1 Fc]
light: QSVLTQPPSVSAAPGQKVTISCSGSSSNIENNHVSWYQQLPGTAPKLLIYDNNKRPSGIPDRFSGSKSGTSATLGITGLQTGDEADYYCETWDTSLSAGRVFGGGTKLTVLGQPKAAPDIQMTQSPSSLSASVGDRVTITCSASQDISNYLNWYQQKPGKAPKVLIYFTSSLHSGVPSRFSGSGSGTDFTLTISSLQPEDFATYYCQQYSTVPWTFGQGTKVEIKRTVAAPSVFIFPPSDEQLKSGTASVVCLLNNFYPREAKVQWKVDNALQSGNSQESVTEQDSKDSTYSLSSTLTLSKADYEKHKVYACEVTHQGLSSPVTKSFNRGEC
notes: N-terminal VD IGF1,2, C-terminal VD VEGF; also called DVD042H; DVD042L
koff (VEGF [1]): 1.46e-05 s⁻¹ | kon (VEGF [1]): 34500 M⁻¹ s⁻¹

B2: DVD259 (bispecific antibody, human IgG1, kappa)
heavy: EVQLVESGGGLVQPGGSLRLSCAASGYTFTNYGMNWVRQAPGKGLEWVGWINTYTGEPTYAADFKRRFTFSLDTSKSTAYLQMNSLRAEDTAVYYCAKYPHYYGSSHWYFDVWGQGTLVTVSSASTKGPQVQLQQSGAELVKPGASVKISCKASGYTFTDYYINWVKLAPGQGLEWIGWIYPGSGNTKYNEKFKGKATLTIDTSSSTAYMQLSSLTSEDTAVYFCVRDSPFFDYWGQGTLLTVSSASTKGPSVFPLAPSSKSTSGGTAALGCLVKDYFPEPVTVSWNSGALTSGVHTFPAVLQSSGLYSLSSVVTVPSSSLGTQTYICNVNHKPSNTKVDKKV[omitted - human IgG1 Fc]
light: DIQMTQSPSSLSASVGDRVTITCSASQDISNYLNWYQQKPGKAPKVLIYFTSSLHSGVPSRFSGSGSGTDFTLTISSLQPEDFATYYCQQYSTVPWTFGQGTKVEIKRTVAAPDIVLTQSPDSLAVSLGERVTMNCKSSQSLLNSGMRKSFLAWYQQKPGQSPKLLIYWASTRESGVPDRFTGSGSGTDFTLTISSVQAEDVAVYYCKQSYHLFTFGSGTKLEIKRTVAAPSVFIFPPSDEQLKSGTASVVCLLNNFYPREAKVQWKVDNALQSGNSQESVTEQDSKDSTYSLSSTLTLSKADYEKHKVYACEVTHQGLSSPVTKSFNRGEC
notes: N-terminal VD VEGF, C-terminal VD PlGF; also called VD259H; VD259L
koff (VEGF [2]): 2.06e-05 s⁻¹ | kon (VEGF [2]): 502000 M⁻¹ s⁻¹

Reference: patent publication US20100260668A1 (published 2010)
